Consider five compounds from patent US10201546B2, “Quinolinyl modulators of RORγt” (Janssen Pharmaceutica NV, priority 2013, dated 2019).

The chains behind the UniProt entries cited, without tags or fusion partners. A line that says so, or that is headed by a name, gives the form on record, which may keep a tag or linker. Residues count along the entry.
UniProt P51449, other isoform, or with tags, fused parts or gaps: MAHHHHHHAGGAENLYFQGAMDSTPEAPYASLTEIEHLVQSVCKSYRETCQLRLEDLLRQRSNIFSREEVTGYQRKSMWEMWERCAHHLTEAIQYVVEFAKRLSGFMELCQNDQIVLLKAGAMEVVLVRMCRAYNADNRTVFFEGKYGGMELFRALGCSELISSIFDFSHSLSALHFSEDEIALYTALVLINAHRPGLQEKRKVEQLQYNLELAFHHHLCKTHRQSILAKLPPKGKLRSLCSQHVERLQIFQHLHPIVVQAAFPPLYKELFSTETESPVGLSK
UniProt P51449, 258-518: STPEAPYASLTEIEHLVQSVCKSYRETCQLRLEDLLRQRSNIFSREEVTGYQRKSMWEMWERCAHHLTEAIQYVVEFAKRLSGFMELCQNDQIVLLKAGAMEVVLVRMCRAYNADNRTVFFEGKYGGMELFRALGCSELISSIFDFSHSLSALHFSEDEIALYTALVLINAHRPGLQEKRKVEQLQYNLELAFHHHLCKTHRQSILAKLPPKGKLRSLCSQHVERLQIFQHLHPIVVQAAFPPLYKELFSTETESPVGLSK

Experiment [1] concerns the target human RORγt ligand binding domain (RORγt LBD) (Homo sapiens (Human), UniProt P51449). As to the kind of experiment: RORγt ThermoFluor assay (thermal shift, binding affinity Kd). For orientation: In DSF a fluorescence change marks the thermal transition of the protein.
Experiment [2] addresses human RORγt LBD fused to the DNA binding domain of the GAL4 protein (Homo sapiens (Human), UniProt P51449). As to the kind of experiment: RORγt (LBD) reporter assay in HEK293T cells. In kind it is cell-based. (Reporter assays use an easily measured gene product as a stand-in for the process of interest.)

One may read the Kd as the free concentration of one partner at which half of the binding sites on the other are occupied at equilibrium, for simple one-to-one binding. On to `COc1nc2ccc(C(O)(c3ccc(C)nc3C)c3cnnn3C)cc2c(Cl)c1OC1CCN(C)CC1` (single isomer, unassigned) [Example 65b, {4-Chloro-2-methoxy-3-[(1-methylpiperidin-4-yl)oxy]quinolin-6-yl}(2,6-dimethylpyridin-3-yl)(1-methyl-1H-1,2,3-triazol-5-yl)methanol], for which the Kd in experiment [1] was found to be 5300 nM.

A word on the IC50: it is the point on the concentration scale where inhibition reaches its midpoint. The low end stands for higher potency, the high end for lower potency. As for `COc1nc2ccc(C(O)(c3cnnn3C)c3cnc(C)n3C)cc2c(Cl)c1CN1CCC(C(F)(F)F)CC1` (single isomer, unassigned) [Example 106b, (4-Chloro-2-methoxy-3-((4-(trifluoromethyl)piperidin-1-yl)methyl)quinolin-6-yl)(1,2-dimethyl-1H-imidazol-5-yl)(1-methyl-1H-1,2,3-triazol-5-yl)methanol], the IC50 in experiment [2] was determined as 17 nM.

`COc1nc2ccc(C(O)(c3cnnn3C)c3cnc(C)n3C)cc2c(Cl)c1CN1CCC(C(F)(F)F)CC1` (single isomer, unassigned) [Example 106c, (4-Chloro-2-methoxy-3-((4-(trifluoromethyl)piperidin-1-yl)methyl)quinolin-6-yl)(1,2-dimethyl-1H-imidazol-5-yl)(1-methyl-1H-1,2,3-triazol-5-yl)methanol] displayed a 50% inhibitory concentration (IC50) in experiment [2] of 17 nM.

Turning to `COc1nc2ccc(C(O)(c3ccc(C(F)(F)F)nc3)c3cncn3C)cc2c(Cl)c1CN1CC(C(F)(F)F)C1` (single isomer, unassigned) [Example 120b, (4-Chloro-2-methoxy-3-((3-(trifluoromethyl)azetidin-1-yl)methyl)quinolin-6-yl)(1-methyl-1H-imidazol-5-yl)(6-(trifluoromethyl)pyridin-3-yl)methanol], in experiment [1], the Kd was found to be 130 nM.

For the compound `COc1nc2ccc(C(O)(c3ccc(C(F)(F)F)nc3)c3cncn3C)cc2c(Cl)c1CN1CC(C(F)(F)F)C1` (single isomer, unassigned) [Example 120c, (4-Chloro-2-methoxy-3-((3-(trifluoromethyl)azetidin-1-yl)methyl)quinolin-6-yl)(1-methyl-1H-imidazol-5-yl)(6-(trifluoromethyl)pyridin-3-yl)methanol], the Kd in experiment [1] amounted to 14 nM.
